Reference: US20250228938A1, “THE COMBINATION OF MACROPHAGE-DIRECTED IMMUNOTHERAPY AND TARGETED AGENTS FOR TREATMENT OF CANCER” (Whitehead Institute for Biomedical Research, priority 2022, published 2025)

Tested on: GFP+ MGH134-1 cells
Assay: Long-term co-culture assay with primary human macrophages, GFP+ MGH134-1 cells
Assay type: cell-based
Conditions: TKI 1 uM, single agent or with anti-CD47 10 ug/mL
Procedure: Long-term co-culture of primary human macrophages was performed using GFP+ target cells. Cells were cultured in IMDM supplemented with 10% ultra-low IgG fetal bovine serum, 100 units/mL penicillin, 100 ug/mL streptomycin, and 292 ug/mL L-glutamine and 20 ng/mL human M-CSF. Purified anti-CD47 antibody clone B6H12 was added at a working concentration of 10 ug/mL. Targeted therapies were added at a final working concentration of 1.0 uM except as otherwise indicated. Cells were then co-cultured for 7-14 days with whole-well imaging of phase contrast and GFP channels performed every 4 hours using an Incucyte S3 system. Automated imaging analysis was performed using Incucyte Analysis Software. Images taken on day 6.5 was used as a standard reference time point for data comparison and statistical analysis. For dose-response experiments, sigmoidal dose-response curves were generated using Prism version 9.2.0 (GraphPad) to determine IC50 parameters.
Long-term co-culture assays were performed by measuring GFP+ area. Data was analyzed by comparing mean GFP+ area between relevant conditions using one-way ANOVA with Holm-Sidak multiple comparison test. Experiments were performed in two independent trials using a minimum of 6-8 donors except as otherwise indicated. IC50 values were calculated by fitting data to sigmoidal dose-response curve using Prism version 9.2.0 (Graphpad).

COc1cc2ncnc(Nc3ccc(F)c(Cl)c3)c2cc1OCCCN1CCOCC1 [gefitinib]
growth of GFP+ MGH134-1 cells (EGFR T790M): neither erlotinib or gefitinib inhibited cell growth as single agents nor in concert with CD47 blockade
